Source: PubChem BioAssay
Most compounds without a hit are left out; they make up all but 13% or so of the library.
G9a block: blocks human histone lysine methyltransferase G9a | G9a H3K9 monomethylation, AlphaScreen, 2 h | Potency, µM (top dose mostly 102 µM), hits mostly inhibitors | actives 8.8% (n = 350,000) | AID 504332; also: nearly all actives have a fitted effect of over 75% in size
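G9a (20 nM) preincubated 15 min RT with compounds, then 500 nM biotinylated H3K9 peptide and 20 uM SAM added; 2 h RT reaction. Monomethyl-H3K9 product detected by AlphaScreen with anti-H3K9me1 antibody, streptavidin donor and anti-rabbit IgG acceptor beads.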
miR-21 reporter: miR-21 reporter, rising signal; HeLa miR-21 FLuc reporter, luciferase, 48 h; Potency, µM (doses to about 38.3 µM); 340,000 tested, under 10 active; AID 2288; active = well fitted rising curve with a large enough effect; inconclusive = small, poorly fitted or top-dose-only effect; inactive = no such curve, though single readings can be large or run the other way;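 further: miR-21 action dims this reporter so a rising signal means less miR-21 action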
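HeLa miR-21-FLuc reporter line, endogenous miR-21; 2000 cells/well in DMEM/10% FBS; compound titration up to ~40uM final, 48 h, 37 degree Celsius; luciferase detection reagent, 15 min lysis, CCD luminescence.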
ALDH1A1 inh: ALDH1A1 (human) enzyme inhibition; Potency, µM (top dose mostly 75.3 µM), hits mostly inhibitors; P00352; actives 7.3% (n = 220,000); Purified ALDH1A1, NADH fluorescence, propionaldehyde substrate; active = well fitted inhibition curve with a large enough effect, not every such curve was filed as active; inconclusive = small, poorly fitted or top-dose-only effect, or another doubt; inactive = no such curve, though single readings can be large or run the other way
Lamin A splicing: modulators of lamin A splicing. Potency, µM (highest dose often 46.1 µM), usual class: inhibitors. HeLa LMNA splicing GFP/RFP minigene ratio, 48 h. AID 1487. actives 0.01% (n = 200,000); active = well fitted inhibition curve with a large enough effect in the signal ratio, with a control signal flat, not every such curve was filed as active; inconclusive = small, poorly fitted or top-dose-only effect, or effect the other way, or a change in a side signal; the % refers to the signal ratio
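S3 HeLa stable clones carrying a lamin A-EGFP splicing minigene plus DsRed2 were seeded at 600 cells/well in Opti-MEM with 2% FBS, pin-dosed and incubated 48 h at 37°C. Acumen cytometry (488 nm) gave the GFP/RFP total-intensity ratio.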
KDM4E inh: JMJD2E (human) inhibition. B2RXH2. JMJD2E catalytic domain, FDH-coupled NADH fluorescence (FDH is formaldehyde dehydrogenase). Potency, µM (series often up to 57.1 µM), hits mostly inhibitors. actives 1.6% (n = 230,000). AID 2147; active = well fitted inhibition curve with a large enough effect, not every such curve was filed as active; inconclusive = small, poorly fitted or top-dose-only effect, or another doubt; inactive = no such curve, though single readings can be large or run the other way; also: nearly all actives have a fitted effect of over 50% in size
Sfp inh: Sfp phosphopantetheinyl transferase inhibition; Biochemical Sfp PPTase activity, qHTS; actives 3.5% (n = 310,000); Potency, µM, usual class: inhibitors;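 also: the enzyme is Sfp with the accession as filed and its product quenches rhodamine fluorescence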
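Step 1, compound plus 15 nM Sfp-PPTase, 15 min, room temperature. Step 2, add rhodamine-CoA (5 uM) and BHQ-2-YbbR (12.5 uM). Step 3, read 525/598 nm fluorescence at 0 and 30 min.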
Large screens that a line does not name were inactive. Unless noted, calls follow the shape of the dose curve; as a rule, active = well fitted curve in the direction sought with a large enough effect; inconclusive = small, poorly fitted or top-dose-only effect, or another doubt; inactive = no such curve, though single readings can be large; an effect the other way counts as inactive or inconclusive.

COc1ccccc1/C=N/NC(=O)c1ccc(NC(=O)c2cccc([N+](=O)[O-])c2)cc1	ALDH1A1 inh 7.9µM, Lamin A splicing inconclusive
COc1ccc(/C=C(/NC(=O)c2ccccc2)C(=O)N/N=C/c2cccs2)cc1OC	none
COc1cc(/C=N/NC(=O)c2ccncc2)c([N+](=O)[O-])cc1OC	none (no result: ALDH1A1 inh, Lamin A splicing, KDM4E inh)
COc1ccc([N+](=O)[O-])cc1/C=N/NC(=O)/C(=C\c1cccs1)NC(=O)c1ccccc1	G9a block 89µM, KDM4E inh inconclusive
COc1ccc(/C=N\NC(=O)c2cccc([N+](=O)[O-])c2)cc1Cn1cc([N+](=O)[O-])cn1	ALDH1A1 inh 20µM (no result: G9a block)
COc1cc(OC)c([N+](=O)[O-])cc1/C=N/NC(=O)c1ccncc1	G9a block inconclusive, ALDH1A1 inh inconclusive, Sfp inh 35µM
COc1ccc(/C=C/C(=O)N2CCN(c3ccccn3)CC2)c2ccccc12	G9a block inconclusive, ALDH1A1 inh inconclusive, KDM4E inh inconclusive
COc1cc(F)c(S(=O)(=O)N2CCOc3ccccc32)cc1OC	none (no result: ALDH1A1 inh, Lamin A splicing, KDM4E inh)
COc1ccc(OC)c(NC(=O)CSc2nc3nc(C)cc(C)n3n2)c1	none (no result: miR-21 reporter, ALDH1A1 inh, Lamin A splicing, KDM4E inh, Sfp inh)
CCC(=O)Nc1ccc(C(=O)N/N=C/c2ccccc2[N+](=O)[O-])cc1	ALDH1A1 inh 28µM (no result: G9a block)
NNC(=O)c1oc2ccccc2c1-n1cccc1	ALDH1A1 inh 2.2µM, Lamin A splicing inconclusive, KDM4E inh inconclusive
O=S(=O)(CCc1ccccc1)c1nnnn1-c1ccccc1	none (no result: G9a block, miR-21 reporter, Lamin A splicing)
N#Cc1ccc(CS(=O)(=O)c2nnnn2C2CCCCC2)cc1	none (no result: G9a block, miR-21 reporter, Lamin A splicing)
N#Cc1cccc(CS(=O)(=O)c2nnnn2C2CCCCC2)c1	ALDH1A1 inh 25µM (no result: G9a block, miR-21 reporter, Lamin A splicing)
c1ccc(-n2nnnc2NCCc2c[nH]c3ccccc23)cc1	ALDH1A1 inh inconclusive, Lamin A splicing inconclusive
N#Cc1ccc(CS(=O)(=O)c2nnnn2-c2ccccc2)cc1	ALDH1A1 inh 0.79µM (no result: G9a block, miR-21 reporter, Lamin A splicing)
O=S(=O)(Cc1ccccc1)c1nnnn1-c1ccccc1	ALDH1A1 inh 0.45µM (no result: G9a block, miR-21 reporter, Lamin A splicing)
c1ccc(CNc2nnnn2-c2ccccc2)cc1	ALDH1A1 inh 40µM, Lamin A splicing inconclusive
CCOc1ccc(NC(=O)CSc2oc(-c3ccc(C)cc3)nc2S(=O)(=O)c2ccc(C)cc2)cc1	miR-21 reporter inconclusive (no result: ALDH1A1 inh, Lamin A splicing, KDM4E inh, Sfp inh)
Cc1cc(NC(=O)CSc2n[nH]c(N)n2)no1	KDM4E inh inconclusive
Cc1ccc(/C=C/C2=Cc3c(sc(NC(=O)CSc4n[nH]c(N)n4)c3C#N)C(C)(C)C2)o1	G9a block 8.9µM, ALDH1A1 inh 0.79µM, Lamin A splicing inconclusive, Sfp inh 2.5µM
Cc1cc(N)n(-c2ccc(S(=O)(=O)c3ccc(C(C)C)cc3)cc2)n1	ALDH1A1 inh 35µM, Lamin A splicing inconclusive
O=C(CNC(=O)c1cccs1)Nc1ccncc1	none (no result: miR-21 reporter, ALDH1A1 inh, Lamin A splicing, KDM4E inh, Sfp inh)
Cc1cccc(N2C(=O)CC(Sc3nnc(C)s3)C2=O)c1 (stereo not drawn)	G9a block 10µM, ALDH1A1 inh 2.8µM
Cn1nnnc1SC1CC(=O)N(c2ccccc2)C1=O (stereo not drawn)	ALDH1A1 inh 1.6µM, Lamin A splicing inconclusive
Cc1cc(C)cc(N2C(=O)CC(Cn3nc(C)cc3C)C2=O)c1 (stereo not drawn)	none (no result: ALDH1A1 inh, Lamin A splicing)
Cc1cccc(N2C(=O)CC(Sc3nc(C)cc(C)n3)C2=O)c1 (stereo not drawn)	G9a block inconclusive, ALDH1A1 inh inconclusive
Cc1cc(C)cc(N2C(=O)CC(Sc3ncn[nH]3)C2=O)c1 (stereo not drawn)	ALDH1A1 inh 2µM, Lamin A splicing inconclusive, KDM4E inh 1.3µM, Sfp inh 35µM (no result: G9a block)
Cc1cc(C)cc(N2C(=O)CC(Sc3nnnn3-c3ccccc3)C2=O)c1 (stereo not drawn)	miR-21 reporter inconclusive, ALDH1A1 inh 14µM
Cc1c(O)nc(SC2CC(=O)N(c3ccccc3)C2=O)[nH]c1=O (stereo not drawn)	G9a block inconclusive, ALDH1A1 inh inconclusive, Sfp inh 79µM
O=C1CC(Sc2nnnn2C2CCCCC2)C(=O)N1c1ccccc1 (stereo not drawn)	G9a block 10µM, miR-21 reporter inconclusive, ALDH1A1 inh 3.5µM, Sfp inh inconclusive
